Target: NaV1.3 (Homo sapiens, UniProt Q9NY46)
Test: VIPR optical membrane potential assay, NaV1.3 inhibition
Details: activity against NaV 1.3 channel

Sequences of proteins named here, by UniProt entry; tags and fusion partners are left off.
UniProt Q9NY46, whole entry: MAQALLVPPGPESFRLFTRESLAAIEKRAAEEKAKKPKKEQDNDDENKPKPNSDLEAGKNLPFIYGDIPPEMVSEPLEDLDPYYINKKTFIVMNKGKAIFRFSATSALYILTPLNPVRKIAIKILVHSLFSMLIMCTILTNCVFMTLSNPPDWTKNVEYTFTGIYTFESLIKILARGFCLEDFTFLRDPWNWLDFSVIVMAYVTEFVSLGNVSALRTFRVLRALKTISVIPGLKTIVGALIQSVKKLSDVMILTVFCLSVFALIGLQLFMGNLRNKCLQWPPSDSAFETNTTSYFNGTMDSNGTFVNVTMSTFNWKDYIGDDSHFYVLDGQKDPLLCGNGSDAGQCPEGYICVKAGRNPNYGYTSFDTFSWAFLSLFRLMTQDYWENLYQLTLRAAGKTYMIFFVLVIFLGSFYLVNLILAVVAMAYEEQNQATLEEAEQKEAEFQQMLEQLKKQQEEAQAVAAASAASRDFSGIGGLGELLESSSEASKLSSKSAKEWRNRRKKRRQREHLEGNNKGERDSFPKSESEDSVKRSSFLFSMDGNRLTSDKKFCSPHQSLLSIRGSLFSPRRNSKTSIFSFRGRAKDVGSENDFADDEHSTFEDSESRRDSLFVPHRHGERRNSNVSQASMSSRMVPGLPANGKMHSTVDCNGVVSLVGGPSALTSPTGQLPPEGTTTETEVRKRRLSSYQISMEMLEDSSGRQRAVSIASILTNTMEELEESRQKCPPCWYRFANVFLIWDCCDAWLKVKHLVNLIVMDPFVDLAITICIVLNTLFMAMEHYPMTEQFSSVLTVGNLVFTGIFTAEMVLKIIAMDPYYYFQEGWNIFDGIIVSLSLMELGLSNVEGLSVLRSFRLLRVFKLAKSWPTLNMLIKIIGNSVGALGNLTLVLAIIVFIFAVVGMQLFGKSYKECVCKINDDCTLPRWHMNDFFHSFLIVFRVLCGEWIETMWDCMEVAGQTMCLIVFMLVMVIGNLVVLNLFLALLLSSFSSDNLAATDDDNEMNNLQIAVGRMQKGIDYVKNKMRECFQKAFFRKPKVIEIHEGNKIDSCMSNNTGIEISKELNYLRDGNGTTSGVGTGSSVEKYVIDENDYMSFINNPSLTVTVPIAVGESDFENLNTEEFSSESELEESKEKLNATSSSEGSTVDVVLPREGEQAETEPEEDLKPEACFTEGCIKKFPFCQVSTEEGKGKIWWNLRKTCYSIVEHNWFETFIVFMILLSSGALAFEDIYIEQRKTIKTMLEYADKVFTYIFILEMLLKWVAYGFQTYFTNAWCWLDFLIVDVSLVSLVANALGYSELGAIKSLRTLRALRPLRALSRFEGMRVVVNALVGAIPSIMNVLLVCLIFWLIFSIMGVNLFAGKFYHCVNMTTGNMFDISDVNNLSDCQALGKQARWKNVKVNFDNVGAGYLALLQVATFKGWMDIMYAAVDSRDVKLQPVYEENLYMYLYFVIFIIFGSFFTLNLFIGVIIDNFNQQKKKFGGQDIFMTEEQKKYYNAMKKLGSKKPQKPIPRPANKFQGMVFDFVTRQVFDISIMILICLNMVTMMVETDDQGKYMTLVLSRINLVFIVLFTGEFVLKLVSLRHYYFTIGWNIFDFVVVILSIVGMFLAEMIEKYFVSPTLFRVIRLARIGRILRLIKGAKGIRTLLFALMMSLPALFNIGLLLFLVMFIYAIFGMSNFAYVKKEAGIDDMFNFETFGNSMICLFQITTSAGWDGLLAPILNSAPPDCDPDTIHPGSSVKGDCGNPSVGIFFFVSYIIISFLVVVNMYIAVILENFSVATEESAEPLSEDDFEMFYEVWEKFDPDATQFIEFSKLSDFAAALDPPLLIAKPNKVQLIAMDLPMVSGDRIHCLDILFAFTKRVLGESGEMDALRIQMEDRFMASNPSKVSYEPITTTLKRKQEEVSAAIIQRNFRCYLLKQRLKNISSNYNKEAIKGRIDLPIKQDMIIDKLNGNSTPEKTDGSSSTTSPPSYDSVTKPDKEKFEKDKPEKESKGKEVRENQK

Cc1ccc(OC(=O)N2CCc3cc(S(=O)(=O)Nc4nccs4)ccc32)cc1
IC50: > 5 µM
